# Measured values: US20230108186A1, “NITRIC OXIDE-RELEASING ANTIBACTERIAL COMPOUNDS, FORMULATIONS, AND METHODS PERTAINING THERETO” (published 2023)
# Columns and labels:
# [1] = Nitric oxide analysis (NOA) release profile measured by chemiluminescence
# [2] = Degradation and NO/HNO release under simulated physiological conditions; conditions: for release of NO or HNO: physiological temperatures and pHs
compound,measurement,setting,value
β-cyclodextrin,NO-loading,[1]; MTDD (NCT-19-096) mixed with β-cyclodextrin,0.0 µmol/mg
[O-]/[N+](=N\O)C(/[N+]([O-])=N/O)/[N+]([O-])=N/O,NO released,"[1]; pH 7.4, chemiluminescence",6.7 μmol NO/mg
[O-]/[N+](C/[N+]([O-])=N\O)=N\O,release of NO or HNO,[2],does not release NO or HNO
same,release of NO or HNO,[2]; listed as Methane bis-diazeniumdiolate,does not release NO or NHO
same,degradation,[2]; simulated physiological conditions,does not not degrade to any significant degree
